Sequences of proteins named here, by UniProt entry; tags and fusion partners are left off.
UniProt P19327, whole entry: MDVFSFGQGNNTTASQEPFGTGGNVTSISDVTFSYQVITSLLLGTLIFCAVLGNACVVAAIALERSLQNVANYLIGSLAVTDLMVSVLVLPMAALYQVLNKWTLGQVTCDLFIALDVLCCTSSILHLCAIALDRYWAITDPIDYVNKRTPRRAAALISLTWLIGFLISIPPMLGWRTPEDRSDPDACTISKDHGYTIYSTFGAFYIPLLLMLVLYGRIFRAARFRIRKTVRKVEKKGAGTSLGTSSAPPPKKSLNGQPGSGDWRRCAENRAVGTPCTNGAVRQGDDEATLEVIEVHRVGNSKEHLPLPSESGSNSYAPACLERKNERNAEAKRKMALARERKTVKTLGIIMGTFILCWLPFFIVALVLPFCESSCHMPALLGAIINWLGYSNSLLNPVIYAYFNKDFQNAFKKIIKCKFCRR

According to ChEMBL document CHEMBL1130040, “Synthesis and structure-activity relationships of a new model of arylpiperazines. 2. Three-dimensional quantitative structure-activity relationships of hydantoin-phenylpiperazine derivatives with affinity for 5-HT1A and alpha 1 receptors. A comparison of CoMFA models” (J Med Chem, 1997):

Molecular target: 5-hydroxytryptamine receptor 1A (Rattus norvegicus, UniProt P19327)
Test: Tested in vitro for binding affinity by measuring its ability to inhibit [3H]8-OH-DPAT binding at 5-hydroxytryptamine 1A receptor in rat cerebral cortex membranes.
Type: cell membranes
How it was run: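 Rat cortex homogenized in ice-cold 50 mM Tris-HCl (pH 7.7), spun at 28000g, washed twice, preincubated 37 °C 10 min, resuspended in Tris/5 mM MgSO4/0.5 mM EDTA (pH 7.4). About 1 mg protein incubated 15 min at 37 °C with 0.6 nM [3H]-8-OH-DPAT and competitor, in buffer with 10 nM clonidine and 30 nM prazosin. Nonspecific binding: 10 μM 5-HT. Prescreen at 10^-6 M; curves run if displacement ≥55%.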

Ki: 2580 nM
Compound: O=C1C2CCCCN2C(=O)N1CCCCN1CCN(c2ccc([N+](=O)[O-])cc2)CC1 (stereo unspecified)
